The Ki is the equilibrium dissociation constant of an inhibitor or competing ligand from its target.

The test addresses T1, Carboxypeptidase A1 (Homo sapiens, UniProt P15085).
T1 sequence (P15085 whole entry): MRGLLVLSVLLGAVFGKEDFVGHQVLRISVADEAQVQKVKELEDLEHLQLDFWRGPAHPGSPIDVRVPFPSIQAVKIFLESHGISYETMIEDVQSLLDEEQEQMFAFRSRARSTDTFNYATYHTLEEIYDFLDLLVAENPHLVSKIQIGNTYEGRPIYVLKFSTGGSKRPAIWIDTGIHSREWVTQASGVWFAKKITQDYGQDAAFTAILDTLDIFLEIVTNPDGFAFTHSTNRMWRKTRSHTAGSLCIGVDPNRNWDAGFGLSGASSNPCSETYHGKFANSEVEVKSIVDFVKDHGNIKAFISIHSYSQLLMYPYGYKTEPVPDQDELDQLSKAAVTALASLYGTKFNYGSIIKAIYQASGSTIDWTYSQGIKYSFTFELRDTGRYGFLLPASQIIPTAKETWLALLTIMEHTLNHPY
As to the kind of experiment: Inhibition of CPA.

For the compound `O=C(O)[C@H](Cc1ccccc1)C[N+](=O)[O-]`, the inhibitory constant (Ki) came to 150 nM.

These data come from ChEMBL document CHEMBL1142385, “Nitro as a novel zinc-binding group in the inhibition of carboxypeptidase A” (Bioorg Med Chem, 2008).
